Protein sequences, listed by entry. Tags and fused reporters are not part of them.
UniProt P08913, whole entry: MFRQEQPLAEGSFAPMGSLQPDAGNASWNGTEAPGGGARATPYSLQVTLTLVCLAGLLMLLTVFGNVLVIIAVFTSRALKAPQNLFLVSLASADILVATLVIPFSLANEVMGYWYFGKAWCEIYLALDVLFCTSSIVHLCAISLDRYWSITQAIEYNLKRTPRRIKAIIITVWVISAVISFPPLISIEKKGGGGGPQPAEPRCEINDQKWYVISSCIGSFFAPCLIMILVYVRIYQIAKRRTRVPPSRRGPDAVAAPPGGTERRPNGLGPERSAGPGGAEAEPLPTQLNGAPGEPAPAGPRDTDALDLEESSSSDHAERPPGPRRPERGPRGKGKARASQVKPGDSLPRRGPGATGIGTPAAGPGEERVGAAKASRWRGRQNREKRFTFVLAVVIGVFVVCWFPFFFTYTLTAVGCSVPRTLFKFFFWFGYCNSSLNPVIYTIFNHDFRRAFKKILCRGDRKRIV
UniProt P18825, whole entry: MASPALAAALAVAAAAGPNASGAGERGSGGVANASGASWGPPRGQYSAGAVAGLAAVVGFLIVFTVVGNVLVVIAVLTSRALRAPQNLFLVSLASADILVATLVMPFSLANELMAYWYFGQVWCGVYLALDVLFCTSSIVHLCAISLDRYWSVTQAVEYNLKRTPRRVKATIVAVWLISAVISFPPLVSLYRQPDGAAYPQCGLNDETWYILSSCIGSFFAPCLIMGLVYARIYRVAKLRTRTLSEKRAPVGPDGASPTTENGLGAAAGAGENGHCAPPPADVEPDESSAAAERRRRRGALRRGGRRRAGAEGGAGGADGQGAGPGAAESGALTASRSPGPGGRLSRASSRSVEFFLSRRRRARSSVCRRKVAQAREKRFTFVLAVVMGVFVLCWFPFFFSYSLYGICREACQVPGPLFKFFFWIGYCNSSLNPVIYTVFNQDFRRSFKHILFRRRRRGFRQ
UniProt P31645, whole entry: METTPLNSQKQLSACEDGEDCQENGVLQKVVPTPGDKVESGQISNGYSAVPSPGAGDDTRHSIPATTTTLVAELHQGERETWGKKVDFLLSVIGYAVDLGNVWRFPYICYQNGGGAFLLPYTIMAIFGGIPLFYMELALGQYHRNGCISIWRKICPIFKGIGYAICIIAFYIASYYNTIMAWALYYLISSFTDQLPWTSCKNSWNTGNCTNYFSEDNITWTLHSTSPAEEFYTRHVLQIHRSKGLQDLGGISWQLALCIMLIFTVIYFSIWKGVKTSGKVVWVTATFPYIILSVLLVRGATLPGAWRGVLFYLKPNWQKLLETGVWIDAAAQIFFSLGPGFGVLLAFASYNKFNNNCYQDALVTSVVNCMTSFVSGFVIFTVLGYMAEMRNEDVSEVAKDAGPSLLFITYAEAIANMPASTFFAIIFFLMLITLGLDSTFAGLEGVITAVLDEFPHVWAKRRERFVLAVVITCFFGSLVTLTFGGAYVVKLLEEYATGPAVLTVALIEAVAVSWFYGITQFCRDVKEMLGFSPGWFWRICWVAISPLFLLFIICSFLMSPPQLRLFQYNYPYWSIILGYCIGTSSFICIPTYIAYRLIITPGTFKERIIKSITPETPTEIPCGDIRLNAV

In US20090281099A1, “SUBSTITUTED PYRAZINONE DERIVATIVES FOR USE AS A MEDICINE” (priority 2006, published 2009):

How the values were obtained:
hα2A receptor = hα2A receptor (Homo sapiens, UniProt P08913); assay: Radioligand binding experiment for hα2A receptor ([3H]-raulwolscine, CHO cell membranes); details: [3H]raulwolscine 1 nM, membranes of CHO cells transfected with human α2A receptor
hα2C receptor = hα2C receptor (Homo sapiens, UniProt P18825); assay: Radioligand binding experiment for α2C-adrenoceptor ([3H]-raulwolscine, CHO cell membranes); details: [3H]raulwolscine 1 nM, membranes of CHO cells transfected with human α2C receptor
5HT-Transporter = 5HT-Transporter (Homo sapiens, UniProt P31645); assay: Binding experiment for the 5HT-transporter ([3H]paroxetine, human platelet membranes); details: [3H]paroxetine 0.5 nM

Structure (SMILES)	h-α2A pIC50 (hα2A receptor; tested form: HCl)	h-α2C pIC50 (hα2C receptor; tested form: HCl)	h-5HTT pIC50 (5HT-Transporter; tested form: HCl)	h-α2A pIC50 (hα2A receptor)	h-α2C pIC50 (hα2C receptor)	h-5HTT pIC50 (5HT-Transporter)
O=c1c(NC2CCN(CCOc3ccccc3)CC2)nccn1-c1ccc(CN2CCOCC2)cc1	7.0	8.3	<5	–	–	–
CCOC(=O)N1CCC(NCc2ccc(-n3ccnc(NC4CCN(CCOc5ccccc5)CC4)c3=O)cc2)CC1	–	–	–	6.5	7.9	5.2
CN1CCN(Cc2ccc(-n3ccnc(NC4CCN(CCOc5ccccc5)CC4)c3=O)cc2)CC1	–	–	–	6.8	8.5	5.5
